The values that follow come from the kinase profiling compilation of Christmann-Franck et al. (2016).

Sequences of proteins named here, by UniProt entry; tags and fusion partners are left off. A change or cut given only in a name is not applied to a line headed by its entry.
UniProt O14965: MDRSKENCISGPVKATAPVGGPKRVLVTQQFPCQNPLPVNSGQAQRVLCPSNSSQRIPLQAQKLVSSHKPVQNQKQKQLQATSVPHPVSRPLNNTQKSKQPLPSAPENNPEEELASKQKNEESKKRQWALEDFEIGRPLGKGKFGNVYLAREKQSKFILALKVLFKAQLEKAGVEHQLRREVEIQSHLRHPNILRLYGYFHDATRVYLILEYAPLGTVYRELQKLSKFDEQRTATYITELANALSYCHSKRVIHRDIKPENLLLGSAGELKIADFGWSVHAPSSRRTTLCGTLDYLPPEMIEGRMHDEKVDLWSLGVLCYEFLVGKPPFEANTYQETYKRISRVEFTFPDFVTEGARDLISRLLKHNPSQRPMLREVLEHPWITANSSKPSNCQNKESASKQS
UniProt Q13554, whole entry, looked up: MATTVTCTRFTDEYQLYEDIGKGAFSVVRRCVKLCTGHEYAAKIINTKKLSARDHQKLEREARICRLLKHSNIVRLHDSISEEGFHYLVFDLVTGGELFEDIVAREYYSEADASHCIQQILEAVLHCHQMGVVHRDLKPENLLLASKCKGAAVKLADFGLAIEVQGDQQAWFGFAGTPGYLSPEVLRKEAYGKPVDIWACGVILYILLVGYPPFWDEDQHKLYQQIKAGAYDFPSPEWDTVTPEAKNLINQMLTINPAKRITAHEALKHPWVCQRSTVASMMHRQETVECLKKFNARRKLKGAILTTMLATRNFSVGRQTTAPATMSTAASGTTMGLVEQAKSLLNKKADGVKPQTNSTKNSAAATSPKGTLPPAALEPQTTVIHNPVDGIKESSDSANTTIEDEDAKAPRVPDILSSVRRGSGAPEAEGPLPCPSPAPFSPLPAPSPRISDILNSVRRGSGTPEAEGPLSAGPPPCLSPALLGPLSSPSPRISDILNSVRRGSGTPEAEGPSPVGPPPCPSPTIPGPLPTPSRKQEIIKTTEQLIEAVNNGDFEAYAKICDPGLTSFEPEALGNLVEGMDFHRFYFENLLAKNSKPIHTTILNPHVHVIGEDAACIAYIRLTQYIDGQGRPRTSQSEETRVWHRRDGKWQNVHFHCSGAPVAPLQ
UniProt Q09013: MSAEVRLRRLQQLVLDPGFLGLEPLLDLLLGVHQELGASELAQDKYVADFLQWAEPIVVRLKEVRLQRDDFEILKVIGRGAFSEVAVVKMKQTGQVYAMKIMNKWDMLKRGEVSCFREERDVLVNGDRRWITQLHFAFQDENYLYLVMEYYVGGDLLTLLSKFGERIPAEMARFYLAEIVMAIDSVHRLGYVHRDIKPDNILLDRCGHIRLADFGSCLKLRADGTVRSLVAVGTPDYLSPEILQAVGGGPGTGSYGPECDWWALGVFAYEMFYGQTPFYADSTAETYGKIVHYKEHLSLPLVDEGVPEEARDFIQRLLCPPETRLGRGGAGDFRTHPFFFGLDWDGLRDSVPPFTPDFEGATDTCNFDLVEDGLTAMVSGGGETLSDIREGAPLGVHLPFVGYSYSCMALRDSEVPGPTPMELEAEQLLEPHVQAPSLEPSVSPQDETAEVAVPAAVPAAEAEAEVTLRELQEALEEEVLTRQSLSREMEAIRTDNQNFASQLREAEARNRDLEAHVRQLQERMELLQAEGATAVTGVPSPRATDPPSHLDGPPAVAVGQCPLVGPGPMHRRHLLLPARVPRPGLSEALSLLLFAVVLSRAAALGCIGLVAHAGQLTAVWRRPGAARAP
UniProt Q9P286: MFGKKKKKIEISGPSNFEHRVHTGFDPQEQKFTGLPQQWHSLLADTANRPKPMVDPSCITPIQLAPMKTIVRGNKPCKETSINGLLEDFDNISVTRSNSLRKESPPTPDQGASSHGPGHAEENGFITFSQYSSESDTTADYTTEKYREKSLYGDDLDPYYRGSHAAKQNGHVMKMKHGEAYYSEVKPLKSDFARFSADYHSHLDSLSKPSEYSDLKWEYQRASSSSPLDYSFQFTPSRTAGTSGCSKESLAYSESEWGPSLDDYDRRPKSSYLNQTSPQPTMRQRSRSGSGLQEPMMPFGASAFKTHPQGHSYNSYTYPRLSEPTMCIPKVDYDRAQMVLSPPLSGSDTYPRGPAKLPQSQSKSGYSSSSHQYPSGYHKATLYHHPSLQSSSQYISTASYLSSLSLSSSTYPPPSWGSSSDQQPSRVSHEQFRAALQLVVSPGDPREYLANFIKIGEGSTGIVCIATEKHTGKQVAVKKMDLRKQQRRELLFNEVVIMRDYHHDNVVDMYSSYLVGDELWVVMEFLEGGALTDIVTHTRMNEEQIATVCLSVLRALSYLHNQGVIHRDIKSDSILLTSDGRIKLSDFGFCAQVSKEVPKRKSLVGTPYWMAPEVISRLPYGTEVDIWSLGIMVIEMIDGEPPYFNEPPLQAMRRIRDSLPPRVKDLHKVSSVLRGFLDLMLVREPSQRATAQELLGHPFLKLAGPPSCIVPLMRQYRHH
UniProt P51812, whole entry, looked up: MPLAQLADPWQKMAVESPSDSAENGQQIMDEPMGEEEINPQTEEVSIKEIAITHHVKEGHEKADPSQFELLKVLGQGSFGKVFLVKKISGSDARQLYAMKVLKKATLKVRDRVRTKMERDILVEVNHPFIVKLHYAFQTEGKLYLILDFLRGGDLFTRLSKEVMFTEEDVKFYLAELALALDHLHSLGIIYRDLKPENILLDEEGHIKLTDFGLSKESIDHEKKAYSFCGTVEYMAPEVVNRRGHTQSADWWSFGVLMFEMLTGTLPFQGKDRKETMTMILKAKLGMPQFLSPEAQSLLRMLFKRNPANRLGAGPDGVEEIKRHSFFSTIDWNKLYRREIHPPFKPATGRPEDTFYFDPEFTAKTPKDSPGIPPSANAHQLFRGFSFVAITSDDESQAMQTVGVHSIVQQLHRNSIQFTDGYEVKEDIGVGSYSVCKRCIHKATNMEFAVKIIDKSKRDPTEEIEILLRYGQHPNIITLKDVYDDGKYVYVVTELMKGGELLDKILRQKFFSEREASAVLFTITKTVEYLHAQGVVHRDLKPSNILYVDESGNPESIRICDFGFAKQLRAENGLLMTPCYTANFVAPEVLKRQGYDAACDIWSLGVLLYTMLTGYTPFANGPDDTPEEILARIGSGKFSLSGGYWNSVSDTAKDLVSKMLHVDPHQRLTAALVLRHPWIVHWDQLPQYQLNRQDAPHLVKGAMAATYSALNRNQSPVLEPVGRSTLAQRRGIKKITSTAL
UniProt O75676: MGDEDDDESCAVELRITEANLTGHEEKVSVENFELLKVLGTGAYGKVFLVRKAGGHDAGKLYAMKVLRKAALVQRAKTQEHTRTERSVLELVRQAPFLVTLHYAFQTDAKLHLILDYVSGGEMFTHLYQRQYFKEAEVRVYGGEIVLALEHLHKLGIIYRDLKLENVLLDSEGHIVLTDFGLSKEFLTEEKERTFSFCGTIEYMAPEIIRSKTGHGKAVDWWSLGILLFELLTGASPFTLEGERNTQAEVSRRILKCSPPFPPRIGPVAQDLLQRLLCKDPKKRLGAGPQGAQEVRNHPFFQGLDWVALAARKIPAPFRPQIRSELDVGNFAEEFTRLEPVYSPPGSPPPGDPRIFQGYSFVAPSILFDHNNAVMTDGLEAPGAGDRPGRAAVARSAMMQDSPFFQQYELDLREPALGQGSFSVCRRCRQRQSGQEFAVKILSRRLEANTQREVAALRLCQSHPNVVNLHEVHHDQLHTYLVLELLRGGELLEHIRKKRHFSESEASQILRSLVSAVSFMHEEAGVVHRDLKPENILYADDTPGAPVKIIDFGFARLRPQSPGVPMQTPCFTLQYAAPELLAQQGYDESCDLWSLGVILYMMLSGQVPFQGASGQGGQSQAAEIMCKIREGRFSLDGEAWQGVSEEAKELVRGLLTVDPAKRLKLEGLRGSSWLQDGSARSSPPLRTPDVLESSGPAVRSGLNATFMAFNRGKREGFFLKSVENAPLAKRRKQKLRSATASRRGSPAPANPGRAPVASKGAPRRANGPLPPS
UniProt O75716, whole entry, looked up: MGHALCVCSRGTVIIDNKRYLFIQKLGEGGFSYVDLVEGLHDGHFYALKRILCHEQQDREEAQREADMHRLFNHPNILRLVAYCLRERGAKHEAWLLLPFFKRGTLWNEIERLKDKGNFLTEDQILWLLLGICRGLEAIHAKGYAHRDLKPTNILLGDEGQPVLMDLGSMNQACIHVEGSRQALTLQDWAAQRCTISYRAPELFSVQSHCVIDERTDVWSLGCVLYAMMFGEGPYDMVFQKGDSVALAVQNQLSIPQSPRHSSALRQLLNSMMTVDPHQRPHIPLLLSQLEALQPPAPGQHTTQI
UniProt Q9UEE5: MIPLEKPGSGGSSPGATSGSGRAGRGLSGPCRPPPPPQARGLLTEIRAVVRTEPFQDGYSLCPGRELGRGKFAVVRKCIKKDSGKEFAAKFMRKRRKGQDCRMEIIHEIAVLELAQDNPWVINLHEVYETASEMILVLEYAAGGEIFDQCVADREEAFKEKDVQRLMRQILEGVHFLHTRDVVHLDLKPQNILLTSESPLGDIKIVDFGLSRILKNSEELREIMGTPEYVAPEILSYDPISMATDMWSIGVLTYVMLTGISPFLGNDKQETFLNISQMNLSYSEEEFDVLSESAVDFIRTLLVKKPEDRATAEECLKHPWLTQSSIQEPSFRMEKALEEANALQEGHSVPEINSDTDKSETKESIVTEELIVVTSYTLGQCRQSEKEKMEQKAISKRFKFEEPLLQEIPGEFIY
UniProt Q7L7X3: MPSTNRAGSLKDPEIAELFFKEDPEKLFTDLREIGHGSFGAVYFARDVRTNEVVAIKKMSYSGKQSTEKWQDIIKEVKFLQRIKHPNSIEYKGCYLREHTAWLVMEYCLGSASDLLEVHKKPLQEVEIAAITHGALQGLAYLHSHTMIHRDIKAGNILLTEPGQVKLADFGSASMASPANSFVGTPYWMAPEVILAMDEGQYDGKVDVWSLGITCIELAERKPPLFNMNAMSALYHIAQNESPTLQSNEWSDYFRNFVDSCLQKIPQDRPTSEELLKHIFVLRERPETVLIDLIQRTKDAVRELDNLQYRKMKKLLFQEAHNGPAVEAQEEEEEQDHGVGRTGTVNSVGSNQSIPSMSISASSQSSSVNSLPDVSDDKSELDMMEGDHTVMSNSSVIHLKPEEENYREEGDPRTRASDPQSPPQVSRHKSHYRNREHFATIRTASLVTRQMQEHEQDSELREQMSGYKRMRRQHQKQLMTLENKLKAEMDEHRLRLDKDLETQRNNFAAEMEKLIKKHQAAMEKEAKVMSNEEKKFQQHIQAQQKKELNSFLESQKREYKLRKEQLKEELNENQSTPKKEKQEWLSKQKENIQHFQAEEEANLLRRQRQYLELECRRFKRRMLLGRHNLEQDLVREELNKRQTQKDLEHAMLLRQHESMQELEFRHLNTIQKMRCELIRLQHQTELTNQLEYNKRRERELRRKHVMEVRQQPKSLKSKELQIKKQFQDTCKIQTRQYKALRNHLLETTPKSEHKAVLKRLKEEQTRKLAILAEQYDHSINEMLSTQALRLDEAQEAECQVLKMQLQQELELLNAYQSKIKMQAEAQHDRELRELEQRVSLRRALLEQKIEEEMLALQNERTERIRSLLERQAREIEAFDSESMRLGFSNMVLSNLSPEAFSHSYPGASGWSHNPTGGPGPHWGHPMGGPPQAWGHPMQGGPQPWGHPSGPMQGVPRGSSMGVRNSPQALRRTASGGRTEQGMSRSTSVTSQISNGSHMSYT

As a reminder, the residual activity is the signal under treatment as a percentage of the control signal.

The structures appear in SMILES notation.

Among the targets are AURKA (human) (UniProt O14965); CAMK2B (human) (UniProt Q13554); DMPK (human) (UniProt Q09013); INSR (human) (UniProt P06213); KIT (human) (UniProt P10721); MAP3K5 (human) (UniProt Q99683); MAP3K8 (human) (UniProt P41279); PAK7 (human) (UniProt Q9P286); PDGFRA (human) (UniProt P16234); PRKCG (human) (UniProt P05129); RPS6KA3 KD1 KD2 (human) (UniProt P51812); RPS6KA4 KD2 (human) (UniProt O75676); STK16 (human) (UniProt O75716); STK17A (human) (UniProt Q9UEE5); TAOK1 (human) (UniProt Q7L7X3); TNK2 (human) (UniProt Q07912).

Common to all, as to experiment: radiometric filter-binding kinase assay, Kinase HotSpot
Holding throughout (settings): compound 0.5 µM; ATP 10 µM

Turning to `O=C1Nc2ccc3ncsc3c2/C1=C/c1c[nH]cn1`, the residual activity worked out at 20% at AURKA (human); 40.8% on CAMK2B (human); 95.8% at DMPK (human); 93.3% at INSR (human); 46.8% on KIT (human); 61.5% at MAP3K5 (human). Moreover, the residual activity on MAP3K8 (human) came to 103%; on PAK7 (human), 87.8%; on PDGFRA (human), 57.7%; at PRKCG (human), 98.7%; on RPS6KA3 KD1 KD2 (human), 28%; on RPS6KA4 KD2 (human), 28%. The residual activity at STK16 (human) came to 28%; at STK17A (human), 6.82%; at TAOK1 (human) it was 37.5%; at TNK2 (human) it was 71.2%.
